From ChEMBL document CHEMBL1136977, “Carbonic anhydrase activators. Activation of the membrane-associated isoform XV with amino acids and amines” (Bioorg Med Chem Lett, 2009)

By UniProt entry, the sequences of proteins in these tests, tags left out. Where a name states a change or a piece, a line headed by the entry shows the natural chain unless it says otherwise.
UniProt P22748: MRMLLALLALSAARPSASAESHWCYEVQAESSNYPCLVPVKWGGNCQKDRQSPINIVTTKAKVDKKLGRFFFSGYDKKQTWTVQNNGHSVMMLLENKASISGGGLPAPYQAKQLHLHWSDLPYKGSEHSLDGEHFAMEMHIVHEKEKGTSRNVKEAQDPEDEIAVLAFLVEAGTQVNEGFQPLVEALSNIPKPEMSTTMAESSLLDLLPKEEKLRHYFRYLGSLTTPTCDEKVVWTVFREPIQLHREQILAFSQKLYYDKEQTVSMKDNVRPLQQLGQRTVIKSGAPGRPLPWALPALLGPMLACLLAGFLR

Legend:
[1] = molecular target: Carbonic anhydrase 4 (Homo sapiens) (UniProt P22748); assay: Activation of human recombinant carbonic anhydrase 4 lacking 20 amino terminal residues by stopped-flow CO2 hydrase method
[2] = molecular target: T1, Carbonic anhydrase 15 (Mus musculus) (UniProt Q99N23); assay: Activation of membrane associated mouse recombinant carbonic anhydrase 15 isoform by stopped-flow CO2 hydrase method
T1 sequence (whole entry): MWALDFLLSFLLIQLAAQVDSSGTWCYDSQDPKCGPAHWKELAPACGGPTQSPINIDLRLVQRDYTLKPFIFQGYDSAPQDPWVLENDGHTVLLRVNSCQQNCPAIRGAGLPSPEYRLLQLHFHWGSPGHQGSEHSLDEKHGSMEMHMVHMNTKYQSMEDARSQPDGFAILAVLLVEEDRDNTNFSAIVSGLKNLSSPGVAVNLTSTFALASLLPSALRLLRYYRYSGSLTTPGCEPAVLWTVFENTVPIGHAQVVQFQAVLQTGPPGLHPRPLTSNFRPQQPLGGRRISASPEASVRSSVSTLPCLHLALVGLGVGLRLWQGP

SMILES	KA [1]	KA [2]
N[C@H](Cc1ccccc1)C(=O)O	49.3 µM	9.5 µM
N[C@@H](Cc1ccccc1)C(=O)O	36.3 µM	33.4 µM
